Drawing on PubChem BioAssay AID493244 (The Scripps Research Institute Molecular Screening Center, 2011), this text covers inhibition for 59 molecules.

This is a selection; strong and weak results do not stand in their true shares. Some salts or complexes appear as unconnected parts, following the source record. Activity calls are given as the source filed them.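 How the source made its calls: active means inhibition above the mean inhibition of all tested compounds plus 3 SD (cut at about 17% in these data); inactive means the rest.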

The test has as its target Troponin I, cardiac muscle (Homo sapiens) + Troponin T, cardiac muscle (Homo sapiens) + Troponin C, slow skeletal and cardiac muscles (Homo sapiens) (UniProt P19429+P45379+P63316). As to the kind of experiment: calcium desensitizers of cardiac thin filaments – biochemical, IANBD-TnC fluorescence, EC70 calcium, primary screen (AID 493244).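 Further: assay run at fixed EC70 calcium of 1.6 mM.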 To be noted: IANBD-labeled cardiac RTF, Ca2+ fluorescence; at 7.15 µM; hits give high values.
As usually defined, the inhibition is the change of the read-out against control, counted positive when it falls. Take `CCc1ccc(OP(C)(=O)O)cc1`: the inhibition is inactive: 8.67%.

For the molecule `CP(=O)(Nc1ccccn1)Oc1ccccc1` (centres undefined), the inhibition is inactive: -2.14%.

Consider `COc1ccccc1OP(C)(=O)Nc1ccc(C)cc1C` (centres undefined), for which the inhibition was inactive: -12%.

Take `Cc1c(NP(C)(=O)Oc2ccc(C(C)C)cc2)c(=O)n(-c2ccccc2)n1C` (centres undefined): the inhibition was inactive: 5.65%.

For the molecule `O=[N+]([O-])c1cc([N+](=O)[O-])c(Nc2ccccn2)c([N+](=O)[O-])c1`, the inhibition is inactive: -9.92%.

`CN(C)CCOC(=O)C(O)(c1ccccc1)C1CCCC1` (centres undefined): the inhibition was inactive: -5.36%.

Consider `COc1ccc(OP(C)(=O)Nc2ccccn2)cc1` (centres undefined), for which the inhibition was inactive: 4.19%.

In the case of `COc1ccccc1OP(C)(=O)Nc1ccc(Br)cc1` (centres undefined), the inhibition was inactive: 0.1%.

For `CCCCCCCCCCCCCCCC1C[N+](C)(C)CCOP(C)(=O)O1` (centres undefined), the inhibition was inactive: 1.45%.

For `CP(=O)(Nc1ccc(Cl)cc1Cl)Oc1ccccc1` (centres undefined), the inhibition was inactive: 16.2%.

Turning to `CP(=O)(OCCOc1ccccc1)OCCOc1ccccc1`, the inhibition was inactive: -8.28%.

Consider `COc1ccc(OP(C)(=O)Nc2ccccc2Br)cc1` (centres undefined), for which the inhibition is inactive: 3.83%.

For `COc1ccccc1OP(C)(=O)Nc1ccc(C)c(C)c1` (centres undefined), the inhibition was inactive: 9.68%.

In the case of `O=C1C(O)=C([N+](=O)[O-])C(=O)C(O)=C1[N+](=O)[O-]`, the inhibition was inactive: 14.1%.

In the case of `Cc1cc(C)cc(OP(C)(=O)Nc2cccc(C(F)(F)F)c2)c1` (centres undefined), the inhibition is inactive: -0.41%.

Regarding `CP(=O)(OC12CC3CC(CC(C3)C1)C2)OC12CC3CC(CC(C3)C1)C2`, the inhibition is inactive: 0.14%.

As to `CCOC(=O)c1ccc(NP(C)(=O)Oc2ccc(Cl)cc2)cc1` (centres undefined), the inhibition was inactive: 8.42%.

As to `CN(C)C(=O)c1c([N+](=O)[O-])cc([N+](=O)[O-])cc1[N+](=O)[O-]`, the inhibition was inactive: -3.93%.

With `CP(=O)(Nc1ccc(Cl)cc1)Oc1ccc(F)cc1` (centres undefined), the inhibition is inactive: -10.7%.

In the case of `COc1ccccc1OP(C)(=O)Nc1ccccc1Br` (centres undefined), the inhibition was inactive: -7.73%.

`CC(C)(C)c1ccc(OP(C)(=O)O)cc1`: the inhibition was inactive: -6.71%.

Take `CP(=O)(Oc1ccccc1)N1CCOC1=O` (centres undefined): the inhibition is inactive: -0.18%.

As to `CCc1ccc(OP(C)(=O)Nc2cccnc2)cc1` (centres undefined), the inhibition is inactive: -3.69%.

On to `COc1ccccc1OP(C)(=O)Nc1c(C)n(C)n(-c2ccccc2)c1=O` (centres undefined), for which the inhibition was inactive: -17.7%.

Take `O=C(OCCCN1CCCC1)C(O)(c1ccccc1)C1CCCCC1` (centres undefined): the inhibition was inactive: 7.89%.

`CCN(CC)CC(O)COC(=O)C(O)(c1ccccc1)C1CCCCC1` (centres undefined): the inhibition was inactive: 5.69%.

For the molecule `COc1ccc(OP(C)(=O)Nc2ccc(Br)cc2)cc1` (centres undefined), the inhibition was inactive: -8.38%.

For `Cc1ccccc1NP(C)(=O)Nc1ccccc1C`, the inhibition is inactive: -1.63%.

On to `CP(=O)(Nc1ccc2c(c1)OCCO2)Oc1ccccc1` (centres undefined), for which the inhibition was inactive: -13.4%.

In the case of `CCOP(C)(=S)SCC(=O)NC(C)(CC)C(=O)O` (centres undefined), the inhibition is inactive: -13.9%.

`CP(=O)(Nc1ccc(SC(F)(F)F)cc1)Oc1ccc(F)cc1` (centres undefined): the inhibition was inactive: 0.74%.

For the molecule `Cc1c(C(c2ccc3c(c2)OCO3)c2c(C)n(C)n(-c3ccccc3)c2=O)c(=O)n(-c2ccccc2)n1C.O=[N+]([O-])c1cc([N+](=O)[O-])c(O)c([N+](=O)[O-])c1`, the inhibition was inactive: -0.29%.

For the molecule `O=[N+]([O-])c1cc([N+](=O)[O-])c(NCC2CCS(=O)(=O)C2)c([N+](=O)[O-])c1` (centres undefined), the inhibition is inactive: -5.24%.

For the molecule `Cc1cc(-c2cccc3ccccc23)c(C)cn1.O=[N+]([O-])c1cc([N+](=O)[O-])c(O)c([N+](=O)[O-])c1`, the inhibition was inactive: -6.28%.

With `O=[N+]([O-])c1ccc(OP2(=O)COCCO2)cc1` (centres undefined), the inhibition was inactive: -0.69%.

With `COc1ccc(NP(C)(=O)Oc2ccccc2OC)cc1` (centres undefined), the inhibition was inactive: -4.27%.

As for `CN(C)CCOC(=O)C(O)(c1ccccc1)C1CCCCC1` (centres undefined), the inhibition is inactive: 1.64%.

In the case of `COc1ccc(OP(C)(=O)Nc2cccc(Br)c2)cc1` (centres undefined), the inhibition was inactive: -9.31%.

In the case of `CCCCCOc1ccc(NP(C)(=O)Oc2ccc(Cl)cc2Cl)cc1` (centres undefined), the inhibition is inactive: -7.98%.

For `O=[N+]([O-])c1cc([N+](=O)[O-])c(OC2CCCCC2O)c([N+](=O)[O-])c1` (centres undefined), the inhibition is inactive: -7.14%.

`CP(=O)(Nc1ccccc1)Oc1ccc(F)cc1` (centres undefined): the inhibition was inactive: -1.5%.

On to `CCN(CC)CCCOC(=O)C(O)(c1ccccc1)C1CCCCC1` (centres undefined), for which the inhibition is inactive: 3.4%.

Take `Cc1c([N+](=O)[O-])cc([N+](=O)[O-])c(Br)c1[N+](=O)[O-]`: the inhibition is inactive: -0.05%.

As to `COc1ccc(OP(C)(=O)Nc2ccc(SC(F)(F)F)cc2)cc1` (centres undefined), the inhibition was inactive: -7%.

In the case of `CCOC(=O)c1ccc(NP(C)(=O)Oc2ccc(F)cc2)cc1` (centres undefined), the inhibition was inactive: -8.07%.

As to `COc1ccc2c(c1O)-c1c(O)c(OC)cc3c1[C@H](C2)[N+](C)(C)CC3.O=[N+]([O-])c1cc([N+](=O)[O-])c([O-])c([N+](=O)[O-])c1[O-]`, the inhibition is inactive: -11.2%.

As to `O=C(OCCN1CCN(CCOCc2ccccc2)CC1)C(O)(c1ccccc1)c1ccccc1`, the inhibition was inactive: -8.71%.

Turning to `O=C(OC1CN2CCC1CC2)c1ccc([N+](=O)[O-])cc1` (centres undefined), the inhibition is inactive: -3.47%.

As to `CC(C)c1ccc(OP(C)(=O)Nc2ccc(SC(F)(F)F)cc2)cc1` (centres undefined), the inhibition is inactive: 5.63%.

As for `CP(=O)(Nc1ccccc1F)Oc1ccccc1` (centres undefined), the inhibition is inactive: -2.17%.

Consider `Cc1cc(C)cc(OP(C)(=O)Nc2ccccn2)c1` (centres undefined), for which the inhibition is inactive: -0.58%.

With `CP(=O)(Nc1cccc(Br)c1)Oc1ccccc1` (centres undefined), the inhibition was inactive: -3.98%.

In the case of `Cc1ccc(C)c(NP(C)(=O)Oc2ccccc2)c1` (centres undefined), the inhibition is inactive: -1.04%.

For the molecule `Cc1cc(C)cc(OP(C)(=O)Nc2ccc(C)cc2C)c1` (centres undefined), the inhibition is inactive: -4.95%.

Consider `CCOC(=O)c1ccc(NP(C)(=O)Oc2cc(C)cc(C)c2)cc1` (centres undefined), for which the inhibition was inactive: -1.42%.

Consider `COc1ccccc1OP(C)(=O)Nc1cccc(Br)c1` (centres undefined), for which the inhibition was inactive: -7.86%.

Consider `CC1=NCCc2c1[nH]c1ccccc21.O=[N+]([O-])c1cc([N+](=O)[O-])c(O)c([N+](=O)[O-])c1`, for which the inhibition is inactive: -6.61%.

Consider `O=C(O)c1cccc(Nc2c([N+](=O)[O-])cc([N+](=O)[O-])cc2[N+](=O)[O-])c1`, for which the inhibition is inactive: -11.6%.

With `CCCOc1ccc(NP(C)(=O)Oc2ccc(Cl)cc2)cc1` (centres undefined), the inhibition is inactive: -4.76%.
